Key:
[1] = tested on: G. lamblia GS trophozoites; assay: Mouse giardiasis model efficacy; format: in vivo, Giardia lamblia
Protocol: The C57BL/6J mice were infected with G. lamblia GS trophozoites, treated for 4 days, and euthanized as described in Materials and Methods.
Compound efficacy was evaluated in the mature mouse giardiasis model reported previously ([18], [66]). Fifteen 4-week-old C57BL/6J female mice (The Jackson Laboratory, Bar Harbor, ME) were infected with G. lamblia GS or H7 trophozoites. For each experiment, the trophozoites (500,000 trophozoites suspended in 200 μl of TYI-S-33 medium) were administered by oral gavage to 15 mice. […] The remaining 5 untreated mice served as controls. The compounds were administered by oral gavage in 200 μl of TYI-S-33 medium supplemented with 0.5% DMSO. All mice were euthanized on day 7. […]
Two inches of the upper small intestine were dissected and washed with 2 ml of medium supplemented with antibiotics to produce axenized cultures (1 mg/ml each piperacillin and moxalactam and 10 μg/ml each vancomycin and polymyxin B, which is a modified mixture compared with that used earlier). […] Trophozoite growth was determined once daily by monitoring the ATP content using the ATPlite reagent.
The proliferation measurements were used to calculate growth curves and the trophozoite load of drug-treated mice compared with that of untreated mice. […] The percentage of the load relative to the N0 for untreated mouse samples was determined. […]

By UniProt entry, the sequences of proteins in these tests, tags left out. Where a name states a change or a piece, a line headed by the entry shows the natural chain unless it says otherwise.
UniProt P50579: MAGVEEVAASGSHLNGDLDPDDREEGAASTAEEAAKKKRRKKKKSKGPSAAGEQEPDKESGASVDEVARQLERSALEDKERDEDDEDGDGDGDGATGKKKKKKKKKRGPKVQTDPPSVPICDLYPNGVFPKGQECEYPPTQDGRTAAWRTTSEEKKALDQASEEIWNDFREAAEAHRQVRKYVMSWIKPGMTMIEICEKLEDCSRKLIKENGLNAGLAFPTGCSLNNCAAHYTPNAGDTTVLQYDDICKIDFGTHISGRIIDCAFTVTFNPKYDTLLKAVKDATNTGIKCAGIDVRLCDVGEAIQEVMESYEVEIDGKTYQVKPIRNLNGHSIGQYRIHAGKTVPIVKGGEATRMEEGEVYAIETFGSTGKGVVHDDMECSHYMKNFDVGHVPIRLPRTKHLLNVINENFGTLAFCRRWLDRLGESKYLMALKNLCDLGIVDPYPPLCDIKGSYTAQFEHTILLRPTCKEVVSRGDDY

human MetAP2 = biological target: T1, human MetAP2 (Homo sapiens, UniProt P50579); assay: MetAP2 fluorescence assay; format: biochemical
T1 construct: purchased Bio-Techne/R&D Systems
Protocol: Based on the available crystal structures of MetAP2 complexes, the fumagillol core binds in a crowded environment, forming exquisite electrostatic interactions. Therefore, there is little room for the core fumagillol scaffold to adopt a different mode of binding. In contrast, the R group at C-6 can vary substantially because it is mostly solvent exposed. The L groups bind in a narrow site at the active-site entrance.
Recombinant human MetAP2 (Bio-Techne/R&D Systems) was diluted to 10 μg/ml in the assay buffer (50 mM HEPES, 0.1 mM CoCl2, 100 mM NaCl, pH 7.5). The substrate H-Met-Gly-Pro-7-amido-4-methylcoumarin (Bio-Techne/R&D Systems) was diluted to 500 μM with 2 μg/ml of the coupling enzyme, recombinant human dipeptidyl peptidase 4 (Bio-Techne/R&D Systems), in assay buffer. Fifty microliters of 10-μg/ml recombinant human MetAP2 was loaded into a flat-bottom black 96-well plate (Greiner Bio), and the reaction was initiated by adding 50 μl of the substrate/dipeptidyl peptidase 4 mixture. The reaction mixture was incubated at room temperature for 10 min, and the fluorescence was measured for 5 min at excitation and emission wavelengths of 380 nm and 460 nm, respectively, in the kinetic mode. For IC50 determination, 0.5 μl inhibitor solution was added to the reaction mixture. […]

[2] = Single-dose acute toxicity (MTD) and histopathology
Protocol: The tissues of three surviving mice were analyzed along with the tissues of three animals treated with the vehicle alone. […] Based on these findings, the maximum tolerated dose (MTD) value was determined to be 1,500 mg/kg.
The maximum tolerated dose (MTD) determination was performed using 8- to 10-week-old C57BL/6 female mice in five groups of 6 animals each. The mice were acclimated to the study room for a week. Animals were randomized by body weight prior to being assigned to dosage groups at the outset of the study. […] Following an up-down dosing strategy, the clinical signs and body weights of the animals in a study group were evaluated daily for 5 days before escalating or reducing the dose administered to the next group, as appropriate. The clinical observations included posture, vocalization, ease of handling, lacrimation, chromodacryorrhea, salivation, coat appearance, rearing frequency, transfer arousal, piloerection, motor movements, tail pinch, and diarrhea.
The histopathology examination included 3 mice that survived treatment with the 2,000-mg/kg dose and 3 mice that received the vehicle alone. Brain, heart, lung, spleen, and liver tissues were examined. Formalin-fixed tissues were embedded in paraffin to produce 4-μm-thick sections. The paraffin wax was removed, and the tissues were stained with Gill’s hematoxylin for 5 to 10 min. […]

[3] = tested on: G. lamblia GS trophozoites; assay: Trophozoite viability MLC determination; format: cell-based, Giardia lamblia
Protocol: The inhibition of metabolism enables the organism to resume proliferation once treatment is completed. To discriminate between the lethality of the promising compounds and the induction of metabolic inactivity by the promising compounds, the minimum lethal concentration (MLC) values were determined by treating the trophozoites with the test compounds for 3 days and transferring the resulting cultures to medium lacking the compounds for 3 days of proliferation. This assay was described previously for G. lamblia ([18]) and was adapted to E. histolytica in the current study.
Trophozoites of G. lamblia isolates WB and GS were grown anaerobically in borosilicate glass screw-cap culture tubes (Fisher Scientific) at pH 7.0 in Keister’s modified TYI-S-33 medium (ATCC). The medium was supplemented with 10% heat-inactivated bovine serum (Sigma-Aldrich) and 0.05% bovine bile (Sigma-Aldrich). To attain low-oxygen-tension conditions, the tubes were filled to 85% to 90% of their total volume capacity and incubated without shaking at 37°C. Subcultures (2 × 10^5 trophozoites per tube) were made three times a week. Detachment of trophozoites for inoculation was achieved by chilling the cultures on ice for 20 min. […]

in vitro = conditions: human, Caco-2, pH 7.4
Source text: Next, we tested the permeation of the compounds across polarized Caco-2 cell monolayers, a method that is widely used as an in vitro model of the human small intestinal mucosa to predict the absorption of orally administered drugs ([63], [64]). With noninvasive intestinal infections, there is no need to establish a high plasma concentration. Since a high rate of uptake through the host gut lining could increase compound toxicity, we sought to reduce gut absorption. […] Both apical-to-basal and basal-to-apical permeation values were measured to obtain information about efflux. […] The efflux machinery is currently unknown.
Passage 36 Caco-2 cells were used. […]
For sample processing, a single-point calibration curve in HBSS buffer with 2% BSA was used. […] One hundred microliters of the supernatant was diluted with 200 μl of water and analyzed by LC-MS/MS (with a Shimadzu ultrafast liquid chromatograph and an API 4000 LC-MS/MS system).
The apparent permeation coefficients (Papp) were calculated as Papp = (dQ/dT) × (1/C0) × (1/A), where dQ is the amount permeated to the receiver compartment of the 96-well plate, dT is the time of compound incubation, C0 is the initial compound concentration in the donor compartment of the well, and A is the surface area of the monolayer.

CO[C@@H]1[C@H](OC(=O)Nc2ccc(C(=O)O)cc2)CC[C@]2(CO2)[C@H]1[C@@]1(C)O[C@@H]1CC=C(C)C [Compound 9, 4-(((((3R,4S,5S,6R)-5-methoxy-4-((2R,3R)-2-methyl-3-(3-methylbut-2-en-1-yl)oxiran-2-yl)-1-oxaspiro[2.5]octan-6-yl)oxy)carbonyl)amino)benzoic acid]
fold lower ED50 than fumagillin [1]: 4 fold
IC50 of compound/IC50 of fumagillin (human MetAP2): 2.75
MTD relative to fully curative dose ([2]; 1,500 mg/kg vs 6.6 mg/kg): 227 fold
therapeutic index LD50/ED50 ([2]; 2,000/0.064): > 31,250
fold improved MLCs compared with the MLC of fumagillin [3]: ~100 fold
efflux ratio at 120 min, 10 µM (in vitro): 1.9
